Experimental data published in ChEMBL document CHEMBL3585263, “Novel Octahydropyrrolo[3,4-c]pyrroles Are Selective Orexin-2 Antagonists: SAR Leading to a Clinical Candidate” (J Med Chem, 2015).

The chains behind the UniProt entries cited, without tags or fusion partners.
UniProt O43613, whole entry: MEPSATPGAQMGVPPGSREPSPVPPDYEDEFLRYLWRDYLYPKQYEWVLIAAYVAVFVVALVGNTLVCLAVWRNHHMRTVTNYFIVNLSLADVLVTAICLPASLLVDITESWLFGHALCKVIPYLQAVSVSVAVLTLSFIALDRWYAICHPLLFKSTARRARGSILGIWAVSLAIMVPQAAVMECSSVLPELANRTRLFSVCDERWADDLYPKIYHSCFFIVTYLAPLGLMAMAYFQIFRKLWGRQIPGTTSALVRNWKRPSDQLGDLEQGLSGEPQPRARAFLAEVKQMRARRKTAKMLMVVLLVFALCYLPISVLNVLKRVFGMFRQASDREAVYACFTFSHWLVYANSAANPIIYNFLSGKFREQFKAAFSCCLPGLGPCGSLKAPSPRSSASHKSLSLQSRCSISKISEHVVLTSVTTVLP

Molecular target: Orexin/Hypocretin receptor type 1 (Homo sapiens, UniProt O43613)

- Ki: 1.96 µM
Compound: Cc1cc(C)nc(N2C[C@H]3CN(C(=O)c4ccc(F)cc4-n4nccn4)C[C@H]3C2)n1
